Laboratory results reported in PubChem BioAssay (NCI).
Where “and” joins values, the source holds several entries; their conditions need not be identical. Identical values can stand only once. The list shows a part of the results, in another mix than the full data.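 Activity criterion: percent growth below 10, measured after cells in 96-well plates were exposed to a single compound concentration for 48 hours.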 Calls of active or inactive are those of the source.

Columns and labels:
Experiment in all cases: NCI-60 one-dose screen, 48 h (100 = growth as untreated, 0 = no growth, -100 = all killed)
Details in all cases: 10 µM unless noted
SK-MEL-2 melanoma = test system: SK-MEL-2 melanoma
EKVX NSCLC = test system: EKVX NSCLC
SN12C renal = test system: SN12C renal
UO-31 renal = test system: UO-31 renal
TK-10 renal = test system: TK-10 renal
ACHN renal = test system: ACHN renal
CAKI-1 renal = test system: CAKI-1 renal
A498 renal = test system: A498 renal
HL-60(TB) leukemia = test system: HL-60(TB) leukemia
CCRF-CEM leukemia = test system: CCRF-CEM leukemia
MOLT-4 leukemia = test system: MOLT-4 leukemia
SR leukemia = test system: SR leukemia
RPMI-8226 leukemia = test system: RPMI-8226 leukemia
OVCAR-8 ovarian = test system: OVCAR-8 ovarian
OVCAR-5 ovarian = test system: OVCAR-5 ovarian
OVCAR-4 ovarian = test system: OVCAR-4 ovarian
SK-OV-3 ovarian = test system: SK-OV-3 ovarian
IGROV1 ovarian = test system: IGROV1 ovarian
OVCAR-3 ovarian = test system: OVCAR-3 ovarian
HS 578T breast = test system: HS 578T breast

Measured: growth

Cc1ccccc1CN(CCCl)Cc1ccccc1C
inactive: SK-MEL-2 melanoma 109% | EKVX NSCLC 99.4% | SN12C renal 97.1% | UO-31 renal 89.2% | TK-10 renal 109% | ACHN renal 107% | CAKI-1 renal 96.6% | A498 renal 91.4% | HL-60(TB) leukemia 99.6% | CCRF-CEM leukemia 92.8% | MOLT-4 leukemia 94.9% | SR leukemia 83.9% | RPMI-8226 leukemia 87.4% | OVCAR-8 ovarian 88.9% | OVCAR-5 ovarian 114% | OVCAR-4 ovarian 107% | SK-OV-3 ovarian 110% | IGROV1 ovarian 114% | OVCAR-3 ovarian 94.3% | HS 578T breast 104%

Cc1ccc(S(=O)(=O)n2cc(C3(O)CC(CC#N)OC3=O)c3cc(Br)ccc32)cc1 (stereo not given)
inactive: SK-MEL-2 melanoma 113% | EKVX NSCLC 94.5% | SN12C renal 103% | UO-31 renal 108% | TK-10 renal 134% | ACHN renal 109% | CAKI-1 renal 96.9% | A498 renal 103% | HL-60(TB) leukemia 75.5% | CCRF-CEM leukemia 84.6% | MOLT-4 leukemia 95.2% | SR leukemia 102% | RPMI-8226 leukemia 74.5% | OVCAR-8 ovarian 98.5% | OVCAR-5 ovarian 109% | OVCAR-4 ovarian 113% | SK-OV-3 ovarian 156% | IGROV1 ovarian 84.8% | OVCAR-3 ovarian 99.8% | HS 578T breast 93.2%

O=C(Oc1c(Cl)cc(Cl)cc1[N+](=O)[O-])c1cc([N+](=O)[O-])cc([N+](=O)[O-])c1
inactive: SK-MEL-2 melanoma 121% | EKVX NSCLC 104% | SN12C renal 104% | UO-31 renal 92.8% | TK-10 renal 119% | ACHN renal 100% | CAKI-1 renal 84% | A498 renal 89.9% | HL-60(TB) leukemia 105% | CCRF-CEM leukemia 97.7% | MOLT-4 leukemia 49.4% | SR leukemia 96.2% | RPMI-8226 leukemia 101% | OVCAR-8 ovarian 95.9% | OVCAR-5 ovarian 114% | OVCAR-4 ovarian 97.6% | SK-OV-3 ovarian 99.8% | IGROV1 ovarian 110% | OVCAR-3 ovarian 116% | HS 578T breast 85.2%

CCOC(=O)CCNCCSP(=O)(O)O
inactive: SK-MEL-2 melanoma 118% | EKVX NSCLC 94.4% | SN12C renal 108% | UO-31 renal 91% | TK-10 renal 101% | ACHN renal 108% | CAKI-1 renal 104% | A498 renal 79.2% | HL-60(TB) leukemia 169% | CCRF-CEM leukemia 107% | MOLT-4 leukemia 120% | SR leukemia 116% | RPMI-8226 leukemia 102% | OVCAR-8 ovarian 97.9% | OVCAR-5 ovarian 94.6% | OVCAR-4 ovarian 110% | SK-OV-3 ovarian 116% | IGROV1 ovarian 111% | OVCAR-3 ovarian 103% | HS 578T breast 95.8%

CCCC1OP(N)(=O)OCC1CC (stereo not given)
inactive: SK-MEL-2 melanoma 104% and 108% | EKVX NSCLC 117% and 101% | SN12C renal 107% and 100% | UO-31 renal 80.9% and 102% | TK-10 renal 108% and 101% | ACHN renal 113% and 106% | CAKI-1 renal 106% and 103% | A498 renal 110% and 101% | HL-60(TB) leukemia 119% and 102% | CCRF-CEM leukemia 87.8% and 115% | MOLT-4 leukemia 97.7% | SR leukemia 99.5% and 123% | RPMI-8226 leukemia 105% and 93.3% | OVCAR-8 ovarian 110% and 106% | OVCAR-5 ovarian 112% and 101% | OVCAR-4 ovarian 130% and 104% | SK-OV-3 ovarian 101% and 107% | IGROV1 ovarian 113% and 104% | OVCAR-3 ovarian 113% and 92.2% | HS 578T breast 110% and 95.6%

CCOP(=O)(NC1CCCCC1)OCC
inactive: SK-MEL-2 melanoma 107% | EKVX NSCLC 106% | SN12C renal 88.5% | UO-31 renal 84% | TK-10 renal 111% | ACHN renal 98.4% | CAKI-1 renal 90.9% | A498 renal 105% | HL-60(TB) leukemia 106% | CCRF-CEM leukemia 92% | MOLT-4 leukemia 96% | SR leukemia 91.6% | RPMI-8226 leukemia 89.8% | OVCAR-8 ovarian 104% | OVCAR-5 ovarian 102% | OVCAR-4 ovarian 118% | SK-OV-3 ovarian 96.4% | IGROV1 ovarian 106% | OVCAR-3 ovarian 106% | HS 578T breast 98.3%

CCOP(=O)(Nc1ccccc1)OCC
inactive: SK-MEL-2 melanoma 101% | EKVX NSCLC 113% | SN12C renal 104% | UO-31 renal 82.1% | TK-10 renal 101% | ACHN renal 102% | CAKI-1 renal 102% | A498 renal 95.2% | HL-60(TB) leukemia 104% | CCRF-CEM leukemia 96.5% | MOLT-4 leukemia 95.4% | SR leukemia 95.5% | RPMI-8226 leukemia 101% | OVCAR-8 ovarian 103% | OVCAR-5 ovarian 103% | OVCAR-4 ovarian 111% | SK-OV-3 ovarian 92.6% | IGROV1 ovarian 101% | OVCAR-3 ovarian 110% | HS 578T breast 109%
